The source of these data is article PMC9525908, “α-Crystallin chaperone mimetic drugs inhibit lens γ-crystallin aggregation: Potential role for cataract prevention” (The Journal of Biological Chemistry, 2022).

The structures appear in SMILES notation.

This test has as its system bovine gamma crystallins. As to the kind of experiment: Screen: H2O2 and heat mediated aggregation of bovine gamma crystallins, turbidimetry at 600 nm. It counts as biochemical. To be noted: bovine γ-crystallin-rich proteins, oxidant stress 24 h and/or thermal stress 72 °C 20 min. The method, then: For the initial screen, a microtiter plate assay was developed in which bovine crystallins (2 mg/ml of 50 mM K3PO4 buffer, pH 7.2 [buffer A]) were exposed to H2O2 at varying concentrations (1–50 mM) for 12 to 36 h, upon which turbidity developed (at 50 mM H2O2 concentration) in both β- and γ-crystallins (Fig. 1, A and B). […] This was determined by turbidimetry at 600 nm (Fig. 1C) and confirmed using visual assessment of solution transparency over a fine text as well as the presence of cloudy aggregates visible by dark field microscopy (Fig. 1D). The drug:protein stoichiometric ratio was about 5:1. […]
Wells were filled with 90 μl calf γ-crystallin-rich protein solution (pool 4 at 2 mg/ml) followed by 0.5 to 5.0 μl of drug (all 10 mM stock solution in DMSO) as supplied by the manufacturer and 10 μl H2O2 (450 mM stock solution in water) and sealed with sticky Applied Biosystems MicroAmp Clear Adhesive films (Life Technologies). […] In order to quantitate the impact of the drugs on aggregation, a fitness plot was created (Fig. 1 C) that allowed us to identify wells with enhanced/worsening versus suppressed crystallin aggregation. In addition, aggregation in each well was also visually assessed by two independent “blinded” readers for the ability to read fine print through each well by placing the plates over small font text (Fig. 1D). […]

Turning to `Oc1c(Cl)cc(Cl)c(Cl)c1Cc1c(O)c(Cl)cc(Cl)c1Cl` [drug X, Hexachlorophene], the Antiaggregation activity result is reported as “Medium heat shock inhibitor”.
